pKd: −log10 of the molar value.
Assays:
[1] = biological target: Receptor-interacting serine/threonine-protein kinase 2 (Homo sapiens, UniProt O43353)
[2] = biological target: T1, Serine/threonine-protein kinase 17A (Homo sapiens, UniProt Q9UEE5)
T1 sequence (Q9UEE5 whole entry): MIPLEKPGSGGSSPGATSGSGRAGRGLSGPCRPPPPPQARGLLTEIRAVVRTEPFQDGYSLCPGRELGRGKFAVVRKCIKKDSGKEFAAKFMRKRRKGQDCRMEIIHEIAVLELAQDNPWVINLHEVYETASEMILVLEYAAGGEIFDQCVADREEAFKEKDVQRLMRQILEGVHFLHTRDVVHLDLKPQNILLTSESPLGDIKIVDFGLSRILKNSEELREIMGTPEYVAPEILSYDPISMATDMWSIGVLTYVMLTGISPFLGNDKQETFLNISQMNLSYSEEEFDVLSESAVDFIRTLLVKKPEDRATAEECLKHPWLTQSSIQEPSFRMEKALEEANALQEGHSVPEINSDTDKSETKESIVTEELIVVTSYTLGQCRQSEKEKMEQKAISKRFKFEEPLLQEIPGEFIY

Amino acid sequences for entries named in this document (tags omitted).
UniProt O43353, whole entry: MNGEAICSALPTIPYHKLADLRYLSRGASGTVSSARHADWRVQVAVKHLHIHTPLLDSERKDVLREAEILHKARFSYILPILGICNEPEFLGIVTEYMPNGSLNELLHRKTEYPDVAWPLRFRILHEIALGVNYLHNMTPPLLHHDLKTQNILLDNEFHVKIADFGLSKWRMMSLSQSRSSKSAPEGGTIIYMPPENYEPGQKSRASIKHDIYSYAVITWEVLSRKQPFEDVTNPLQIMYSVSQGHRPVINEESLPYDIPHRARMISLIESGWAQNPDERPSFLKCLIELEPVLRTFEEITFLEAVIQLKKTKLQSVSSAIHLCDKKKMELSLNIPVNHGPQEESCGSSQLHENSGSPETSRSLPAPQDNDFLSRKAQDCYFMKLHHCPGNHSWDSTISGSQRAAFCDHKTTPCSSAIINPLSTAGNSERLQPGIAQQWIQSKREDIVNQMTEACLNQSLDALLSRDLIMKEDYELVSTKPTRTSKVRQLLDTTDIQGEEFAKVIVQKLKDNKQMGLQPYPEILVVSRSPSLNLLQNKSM

| pKd [1] | Compound | pKd [2] |
| --- | --- | --- |
| 6.46 | Oc1ccc(-c2nc(-c3ccncc3)c(-c3ccc(F)cc3)[nH]2)cc1 [SB-202190] | – |
| – | CCOc1cc2ncc(C#N)c(Nc3ccc(F)c(Cl)c3)c2cc1NC(=O)/C=C/CN(C)C [PELITINIB] | 7.24 |

From ChEMBL document CHEMBL1144455, “A small molecule-kinase interaction map for clinical kinase inhibitors” (Nat Biotechnol, 2005)
